Laboratory results taken from patent US10105367B2, “Therapeutic thiophene-, furan-, and pyridine-fused azolopyrimidin-5-(6h)-ones” (Dart Neuroscience (Cayman) Ltd., priority 2012, dated 2018).

Sequences of proteins named here, by UniProt entry; tags and fusion partners are left off.
UniProt Q01064, whole entry: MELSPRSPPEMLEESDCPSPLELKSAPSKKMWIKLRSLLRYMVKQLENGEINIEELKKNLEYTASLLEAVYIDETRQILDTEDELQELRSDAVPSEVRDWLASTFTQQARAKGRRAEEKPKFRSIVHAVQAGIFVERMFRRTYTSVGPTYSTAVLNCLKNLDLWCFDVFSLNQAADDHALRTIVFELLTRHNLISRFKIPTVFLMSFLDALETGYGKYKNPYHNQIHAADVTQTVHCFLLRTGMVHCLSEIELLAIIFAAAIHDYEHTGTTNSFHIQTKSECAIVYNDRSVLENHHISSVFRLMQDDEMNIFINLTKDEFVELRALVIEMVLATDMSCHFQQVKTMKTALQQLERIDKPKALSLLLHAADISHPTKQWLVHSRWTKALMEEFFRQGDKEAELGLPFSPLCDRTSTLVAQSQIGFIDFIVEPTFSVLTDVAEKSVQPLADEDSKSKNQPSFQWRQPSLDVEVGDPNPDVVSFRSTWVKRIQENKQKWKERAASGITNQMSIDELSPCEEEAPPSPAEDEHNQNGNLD

Biological target: human PDE1B (Homo sapiens (Human), UniProt Q01064)
Assay: PDE1B inhibitory assay (IMAP TR-FRET)
Settings: negative log of half-maximal molar inhibitory concentration; 200 nM FAM-cAMP, Calmodulin, CaCl2

Structure (SMILES) | PDE1B pIC50
O=C(C1CCOC1)N1CCc2c(sc3c2c2ncnn2c(=O)n3Cc2ccc(Cl)cc2F)C1 (centres unmarked) | >7
COc1ccc(Cn2c(=O)n3ncnc3c3cc(CN4CCOCC4(C)C)cnc32)cc1 | 6-7
